Patent US10202406B2, “Boron cluster compounds and uses thereof” (priority 2011, dated 2019)

Test system: mice
Assay: Motor deficit testing, inverted screen test after injection
Settings: mice after hind limb injection

9-Diethylaminoacetamido-1,7-closo-carborane [m-carborane lidocaine]
motor block (number of experiments with motor block): neither motor nor sensory block
